The values below are quoted from earlier work in publication PMC3413252.

By UniProt entry, the sequences of proteins in these tests, tags left out. Residues count along the entry.
UniProt P40189, 23-619: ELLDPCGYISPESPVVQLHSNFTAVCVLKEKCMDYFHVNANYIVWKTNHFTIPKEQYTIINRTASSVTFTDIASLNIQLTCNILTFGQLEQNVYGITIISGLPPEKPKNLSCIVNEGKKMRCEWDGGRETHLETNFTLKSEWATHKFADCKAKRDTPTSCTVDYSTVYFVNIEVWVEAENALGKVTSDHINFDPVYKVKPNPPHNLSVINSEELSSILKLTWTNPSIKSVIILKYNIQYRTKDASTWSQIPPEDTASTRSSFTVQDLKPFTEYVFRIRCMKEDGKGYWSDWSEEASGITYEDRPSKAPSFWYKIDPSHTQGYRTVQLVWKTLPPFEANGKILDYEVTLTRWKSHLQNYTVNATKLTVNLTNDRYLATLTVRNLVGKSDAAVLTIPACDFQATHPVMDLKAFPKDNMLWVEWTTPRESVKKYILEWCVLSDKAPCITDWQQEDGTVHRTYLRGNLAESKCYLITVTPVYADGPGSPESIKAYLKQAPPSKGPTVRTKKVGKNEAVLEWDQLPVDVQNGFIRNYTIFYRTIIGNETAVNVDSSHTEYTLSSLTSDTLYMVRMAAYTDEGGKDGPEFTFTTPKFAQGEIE
UniProt P05231, 30-212: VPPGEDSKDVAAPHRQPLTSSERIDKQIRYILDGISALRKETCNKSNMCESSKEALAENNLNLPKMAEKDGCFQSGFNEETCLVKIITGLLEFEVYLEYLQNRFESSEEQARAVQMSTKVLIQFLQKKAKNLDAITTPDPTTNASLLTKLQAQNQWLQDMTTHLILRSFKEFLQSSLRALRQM

The target of this data set is soluble gp130 (UniProt P40189).

Regarding “IL6 (active, receptor-bound) (from UniProt P05231)”, the Kd (commonly the constant that tells how readily two partners part at equilibrium) was 3 nM.
